# Ab-14 light chain CDR variants: yeast mating affinities

Target peptide (SARS-CoV-2 spike, HR2 region): PDVDLGDISGINAS

Parent scFv Ab-14: VH joined to VL by three GGGGS repeats. Changes lie in the light chain CDRs alone.
VH: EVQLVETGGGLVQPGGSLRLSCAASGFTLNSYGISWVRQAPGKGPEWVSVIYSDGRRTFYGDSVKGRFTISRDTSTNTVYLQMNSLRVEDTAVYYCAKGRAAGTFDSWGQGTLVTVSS
VL: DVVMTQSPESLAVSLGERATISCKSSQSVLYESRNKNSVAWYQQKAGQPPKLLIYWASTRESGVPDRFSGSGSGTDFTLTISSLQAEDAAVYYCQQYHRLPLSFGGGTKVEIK

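The starting antibody came from a phage panning campaign against this peptide. In library AAYL50, one, two or three CDR residues were substituted; doubles and triples were drawn at random. The scFvs were displayed on barcoded MATa yeast, the peptide on MATalpha yeast. After mating in shaken culture at 30 °C for 16 h, diploids were selected and their barcode pairs sequenced. The ratio of observed to expected reads was calibrated, replicate by replicate, on BCL2-family standards whose Kd was known from biolayer interferometry. The assay was run in three technical replicates.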

Substitutions are numbered in sequence along the VL above, starting at 1 (not Kabat).
Values are log10 of the apparent Kd in nM; lower means stronger binding.
A pair that was not seen in that replicate is written "nd"; this usually means weak binding, but a binder can also be missed.
Nonspecific signal, from three strains lacking the peptide, appeared in 18% of pairings of library AAYL50, centred on 4.19 (5% of these signals below 2.99); values are not corrected for it. The control count says in how many pairings with the empty strains this scFv gave a signal, with their mean in brackets.
For reference, the parent read 0.65 as the reference entry and 1.68 as a member of this library.

| # | changes | log10 Kd (nM) by replicate | signal with controls |
|---|---|---|---|
| 1 | K36Q Q95L R99D | 0.30 / 0.55 / 0.51 | 1/9 (4.10) |
| 2 | V29P W56D T59W | nd / nd / nd | 1/9 (2.73) |
| 3 | Q27P S33Y A40P | nd / nd / nd | 2/9 (4.20) |
| 4 | Y31F S38Y L102F | 4.13 / 4.13 / 3.79 | 0/9 |
| 5 | S33P S103A | nd / nd / nd | 0/9 |
| 6 | S25W W56I L100H | nd / 3.58 / nd | 2/9 (3.11) |
| 7 | A40M S58Q H98T | nd / 3.95 / 2.79 | 1/9 (4.41) |
| 8 | V39Q | nd / nd / nd | 2/9 (3.47) |
| 9 | R34G N37L T59V | 0.87 / 0.88 / 0.92 | 1/9 (4.04) |
| 10 | S25C S58K L100I | 1.91 / 1.98 / 2.36 | 1/9 (4.26) |
| 11 | S25D E32D S103F | 2.26 / 2.18 / 2.13 | 3/9 (3.92) |
| 12 | N37P | 1.37 / 1.32 / 1.60 | 0/9 |
| 13 | E32Y L100T P101F | nd / 4.08 / nd | 0/9 |
| 14 | K24N S25A V29E | 1.02 / 1.17 / 1.33 | 6/9 (4.03) |
| 15 | L30W N35G S58K | 1.75 / 1.68 / 1.45 | 0/9 |
| 16 | S25P A57V L102I | 3.60 / 4.09 / 6.40 | 7/9 (4.51) |
| 17 | E32G S38W L102W | nd / nd / nd | 3/9 (4.26) |
| 18 | L30N H98G | 1.22 / 1.41 / 1.28 | 1/9 (5.00) |
| 19 | S33K A40H Y97R | nd / 4.02 / 3.71 | 4/9 (4.29) |
| 20 | N37T T59I H98V | 1.63 / 1.67 / 1.71 | 2/9 (4.70) |
| 21 | Y31C R60M S103I | nd / nd / 3.29 | 1/9 (4.41) |
| 22 | Y31W S38C Q96F | 4.64 / 3.61 / 3.85 | 3/9 (4.52) |
| 23 | W56S S62H S103F | 0.15 / 0.46 / 0.31 | 3/9 (4.43) |
| 24 | V29P R99E | nd / nd / nd | 1/9 (3.42) |
| 25 | S25I V39L H98D | 0.40 / 1.03 / 0.55 | 1/9 (4.23) |
| 26 | S25H S58F L102W | nd / 4.96 / nd | 1/9 (4.21) |
| 27 | S58H Q95E L100C | 4.24 / 4.68 / nd | 4/9 (4.14) |
| 28 | Y31V E32L E61V | 1.17 / 1.28 / 1.32 | 2/9 (4.76) |
| 29 | S25T P101C L102Q | nd / nd / 3.35 | 1/9 (3.95) |
| 30 | L30Q S58M S103M | nd / 2.08 / 2.80 | 0/9 |
| 31 | L30P E32P L102F | 1.63 / 1.62 / 2.11 | 3/9 (3.19) |
| 32 | V29W N35F K36W | nd / 2.25 / nd | 1/9 (3.29) |

Extract of 2 entries:

changes,log10 Kd (nM) by replicate,signal with controls
V29W N35F K36W,nd / 2.25 / nd,1/9 (3.29)
S25P A57V L102I,3.60 / 4.09 / 6.40,7/9 (4.51)

Values reported by Engelhart et al. 2022, doi:10.1038/s41597-022-01779-4 (FLAb copy).